Data taken from patent US20260022143A1, “Cyclic Peptide Inhibitors of IL-23” (JANSSEN PHARMACEUTICA NV, priority 2022, published 2026).

Experiments:
[1] = Exposed Polar Surface Area (EPSA); format: physicochemical; conditions: SFC on Chirex 3014 column; sample 1 mM DMSO stock
Excerpt: Exposed Polar Surface Area (EPSA) is an experimental descriptor of molecular polarity obtained from chromatographic retention in supercritical fluid chromatography (SFC).
The stationary phase (Chirex 3014(S)-valine and (R)-1-(alpha-naphthyl) ethylamine) was selected for its balance of lipophilic and polar attributes and its capacity to separate compounds with wide polarity differences. The mobile phase consists of methanol (+Ammonium formate) and CO2. Polar compounds are retained stronger under these conditions and a low-slope gradient of methanol achieves elution based on increasing polarity of the mobile phase. Results are normalized using calibration standards generating a linear relationship between retention times and EPSA values. The unit of EPSA is Å^2.
Along with the measurement of compounds of interest, a series of 8 calibration standards (see Materials) are analyzed generating a linear relationship between retention times and EPSA value. The 8 compounds used as calibration standard have their own EPSA value defined by G. Goetz based on the comparison with TPSA (see G. Goetz, L. Philippe and M. Shapiro, “EPSA: A novel supercritical fluid chromatography technique enabling the design of permeable cyclic peptides,” ACS Med. Chem. Lett., vol. 5, pp. 1167-1172, 2014 for more information). The slope from the linear relationship between EPSA values of these eight compounds and their retention times is used to determine the EPSA value of each compound of interest that's measured under the same condition using the equation as below: […]
The mixture of calibrations standard is reinjected every 20 compounds to validate the stability of the retention time.
The mobile phase modifier consists of ammonium formate LC_MS grade (>99%) (CAS number 540-69-2) diluted to 20 mM in HPLC grade Methanol (MeOH, CAS number 67-56-1) and liquid C02 SFC grade (CAS number 124-38-9).
Antipyrine (CAS number: 60-80-0) Chlorpromazine hydrochloride (CAS number: 69-09-0), desipramine hydrochloride (CAS number: […]), pindolol (CAS Number: 13523-86-9), diclofenac (CAS number: 15307-79-6)), m-nitro benzoic acid (CAS number: 121-92-6), bumetanide (CAS number: 28395-03-1), furosemide (CAS number: 54-31-9) were purchased from Sigma Aldrich (Steihneim, Germany).
All analyses were performed on a ultra performance convergence chromatography (UPC™) apparatus (Waters, Milford, MA, USA) equipped with a sample manager, a binary solvent delivery pump (BSM), a column manager, a convergence manager (automated back pressure regulator), a photo diode array detector (DAD) with a high pressure flow cell, and a mass detector simple quadrupole QDa. After the UV detector, the effluent of the SFC was mixed with an eluent consist of mixture MeOH/water (+0.3% Ammonia) 95/5 delivered by a make up pump with a flow rate of 0.4 mL/min and then split to the QDa using a splitter. The instrument was controlled, and data were processed with Masslynx 4.1.
The Analyses were performed using a 4.6×50 mm Chirex 3014(S)-valine and (R)-1-(alpha- naphthyl) ethylamine column (Phenomenex, Le Pecq, France) with 5 um particle and 100A pore size. The flow rate was 4 mL/min with the outlet pressure set to 14 MPa. The injection volume was 2 μL. the mobile phase composition was varied from 5% to 60% modifier at 20%/ min in a linear gradient, holding at 60% for 1.45 min and reverting to the original 5% until the end of the run. Data are acquired during 5 min. An equilibration time of 1 min is applied between 2 injections resulting in an injection every 6 min. each sample is analyzed in duplicate, resulting in a sample to sample turnaround time of 12 min.
The column temperature was set to 35° C. The mass detector was used in full scan from 100 to 800 for small molecules and from 500 to 1200 for peptides.
Each sample is delivered by compound logistics from DMSO stock solution without dilution. The concentration is 1 mM and the volume is 60 μL.

IL-23R = target: T1, IL-23R (Homo sapiens, UniProt Q5VWK5); test: IL23R Reporter Assay; format: cell-based; conditions: read-out: IL23R Reporter Assay (micromolar); HEK293 cells containing IL-23R, IL-12RP1 and STAT-inducible firefly luciferase reporter; 10 ng/mL IL-23 (EC90); 5 h at 37° C.
T1 construct: host or cells: HEK293
T1 sequence (Q5VWK5 24-629): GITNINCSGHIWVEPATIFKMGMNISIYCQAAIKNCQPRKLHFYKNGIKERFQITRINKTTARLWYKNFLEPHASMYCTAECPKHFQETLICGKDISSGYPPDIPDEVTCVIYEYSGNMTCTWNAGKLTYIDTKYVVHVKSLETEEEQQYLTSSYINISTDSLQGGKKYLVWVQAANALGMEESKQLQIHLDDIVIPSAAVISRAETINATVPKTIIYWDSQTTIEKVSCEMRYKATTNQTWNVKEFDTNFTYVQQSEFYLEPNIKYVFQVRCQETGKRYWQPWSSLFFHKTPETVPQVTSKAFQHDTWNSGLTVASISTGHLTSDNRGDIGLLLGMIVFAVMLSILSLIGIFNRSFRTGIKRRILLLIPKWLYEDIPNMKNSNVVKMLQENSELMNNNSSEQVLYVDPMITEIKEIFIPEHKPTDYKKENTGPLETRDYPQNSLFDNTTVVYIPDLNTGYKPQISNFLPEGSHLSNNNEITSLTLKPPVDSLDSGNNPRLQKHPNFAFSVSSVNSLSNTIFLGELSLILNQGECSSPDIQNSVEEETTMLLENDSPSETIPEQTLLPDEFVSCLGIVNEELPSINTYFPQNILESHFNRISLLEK

Substance: cPEG5aCO-Pen(3)-N(N(Me)2)-t-7MeW-Dab(NMeAc)-Pen(3)-AEF-2Nal-THP-Dab(NMeAc)-N-3Pya-Sar-CON(Me)2 [compound 140]
- EPSA [1]: 148.3 Å^2
- IC50 (IL-23R): 0.003 µM
